Data taken from US20110207784A1, “OXADIAZOLE-2-OXIDES AS ANTISCHISTOSOMAL AGENTS” (THE UNITED STATES OF AMERICA, AS REPRESENTED BY THE …, priority 2008, published 2011).

Tested on: freshly perfused S. mansoni worms
Experiment: ex vivo parasite killing assay
Format: cell-based

`N#Cc1c(-c2csc(-c3no[n+]([O-])c3C#N)c2)no[n+]1[O-]` [Compound 54, 4,4′-(thiophen-2,4-diyl)bis(3-cyano-1,2,5-oxadiazole 2-oxide)] was tested, and the “worms judged to be dead” value was 100%.
